IC50 data for 2 compounds are collected here from patent publication US9346794B1, “Substituted 4-pyridones and their use as inhibitors of neutrophil elastase activity” (Boehringer Ingelheim International GmbH, priority 2012, dated 2016).

By UniProt entry, the sequences of proteins in these tests, tags left out. Residues count along the entry.
UniProt P08246, 30-247 limits assumed: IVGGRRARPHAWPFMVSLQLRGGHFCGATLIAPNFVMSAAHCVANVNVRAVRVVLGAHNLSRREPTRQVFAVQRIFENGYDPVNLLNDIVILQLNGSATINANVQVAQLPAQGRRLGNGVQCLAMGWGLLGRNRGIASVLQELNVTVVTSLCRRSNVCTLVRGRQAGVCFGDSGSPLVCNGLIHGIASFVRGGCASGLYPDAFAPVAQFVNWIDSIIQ

Broadly, the IC50 is the concentration at which inhibition is half-maximal.

Each structure is given as a SMILES string.

The assay addresses Human neutrophil elastase (Homo sapiens (Human), UniProt P08246). The assay can be described thus: Human Neutrophil Elastase Assay. The conditions noted are these: substrate MeOSuc-Ala-Ala-Pro-Val-AMC 250 μM, fluorescence, pH 7.5.

`CCn1cc(C(=O)NCc2ccc(S(C)(=O)=NC#N)cc2)c(=O)c(-c2cccc(C(F)F)c2)c1C` (single isomer, unassigned) [5.5A] gave an IC50 of 5 nM.
For `CCn1cc(C(=O)NCc2ccc(S(C)(=O)=NC#N)cc2)c(=O)c(-c2cccc(C(F)F)c2)c1C` (single isomer, unassigned) [5.5B] the value was 2.7 nM.
